We go through one compound from patent US7531541B2, “Partial mGluR5 antagonists for treatment of anxiety and CNS disorders” (Vanderbilt University, priority 2005, dated 2009).

Sequences of proteins named here, by UniProt entry; tags and fusion partners are left off. Residues count along the entry.
UniProt P31424, 21-1203: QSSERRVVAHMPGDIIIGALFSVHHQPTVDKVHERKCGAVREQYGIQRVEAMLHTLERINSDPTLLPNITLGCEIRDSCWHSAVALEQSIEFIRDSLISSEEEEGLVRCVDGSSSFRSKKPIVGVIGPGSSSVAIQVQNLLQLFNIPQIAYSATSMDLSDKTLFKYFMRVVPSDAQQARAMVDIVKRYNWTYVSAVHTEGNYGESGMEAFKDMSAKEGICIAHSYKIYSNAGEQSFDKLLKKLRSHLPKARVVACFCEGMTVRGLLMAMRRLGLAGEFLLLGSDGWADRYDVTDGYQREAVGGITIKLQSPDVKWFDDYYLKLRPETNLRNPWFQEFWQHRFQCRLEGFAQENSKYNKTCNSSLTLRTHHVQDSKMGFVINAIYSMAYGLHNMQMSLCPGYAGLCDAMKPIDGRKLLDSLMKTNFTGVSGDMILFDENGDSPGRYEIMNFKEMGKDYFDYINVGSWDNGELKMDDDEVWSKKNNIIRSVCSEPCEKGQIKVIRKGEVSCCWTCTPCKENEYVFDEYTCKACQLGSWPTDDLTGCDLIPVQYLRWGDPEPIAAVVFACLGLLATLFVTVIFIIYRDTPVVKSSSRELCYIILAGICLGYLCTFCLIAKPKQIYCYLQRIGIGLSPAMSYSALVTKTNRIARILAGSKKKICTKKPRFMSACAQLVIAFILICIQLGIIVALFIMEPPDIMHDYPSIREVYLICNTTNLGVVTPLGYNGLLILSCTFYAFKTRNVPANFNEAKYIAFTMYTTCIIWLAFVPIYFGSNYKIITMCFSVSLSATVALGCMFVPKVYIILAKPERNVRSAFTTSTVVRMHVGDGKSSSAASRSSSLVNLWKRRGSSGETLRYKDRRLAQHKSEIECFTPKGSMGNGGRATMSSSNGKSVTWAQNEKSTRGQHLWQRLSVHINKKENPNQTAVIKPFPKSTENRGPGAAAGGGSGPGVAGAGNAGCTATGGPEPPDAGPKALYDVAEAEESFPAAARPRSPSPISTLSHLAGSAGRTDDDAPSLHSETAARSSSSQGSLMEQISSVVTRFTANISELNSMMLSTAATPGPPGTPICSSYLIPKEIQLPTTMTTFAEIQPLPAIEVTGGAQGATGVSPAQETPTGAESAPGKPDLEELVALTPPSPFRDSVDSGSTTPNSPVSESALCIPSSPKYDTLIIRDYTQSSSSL

This assay concerns the target T1, rat mGluR5 (allosteric MPEP site) (Rattus norvegicus, UniProt P31424).
T1 construct: expressed in transfected cells
The assay is described as follows: [3H]methoxyPEPy radioligand binding assay, membranes of HEK293A cells stably expressing rat mGluR5. Particulars: 2 nM [3H]methoxyPEPy, 60 min room temperature, read-out: Ki, displacement of [3H]methoxyPEPy binding. Here is the method:
FIG. 3. MPEP analogs inhibit the binding of [3H]methoxyPEPy to membranes from cells expressing mGluR5. Membranes prepared from rat mGluR5 HEK293a cells (10 μg/well) were incubated with radiolabeled MPEP analog [3H]methoxyPEPy (2 nM) in the presence of varying concentrations of MPEP analogs for 60 min at room temperature. Samples were filtered through glass fiber filters and washed extensively. Non-specific binding was estimated with 5 μM MPEP. Concentration response curves were generated from the means of three separate experiments. Error bars represent SEM.
The allosteric antagonist MPEP analog [3H]methoxyPEPy (Cosford et al., [3H]-methoxymethyl-MTEP and [3H]-methoxy-PEPy: potent and selective radioligands for the metabotropic glutamate subtype 5 (mGluR5) receptor. Bioorg Med Chem Lett 13:351-4, 2003) was used to evaluate the interaction of the test compounds with the allosteric MPEP site on mGluR5. Membranes were prepared from HEK293A cells stably expressing rat mGluR5. Compounds were diluted into assay buffer (50 mM Tris/0.9% NaCl, pH 7.4) to a 5× stock and 20 μL test compound added to each well of a 96 well assay plate. 60 μL aliquots of membranes diluted in assay buffer (10 μg/well) were added to each well. […] 30 μL scintillation fluid was added to each well and the membrane-bound radioactivity determined by scintillation counting (TopCount by Perkin-Elmer). […]
For orientation: Displacement assays read how much labelled ligand stays bound in the presence of the test substance.

Consider `Cc1cccc(C#Cc2ccccc2)n1` [MPEP, 2-methyl-6-(phenylethynyl)-pyridine, reference compound], for which the Ki turned out to be 4.72 ± 1.5 nM.

The Ki is the dissociation constant of the complex between target and ligand, obtained from inhibition or displacement.
